What all share (experiment): ≥ marks a high value that may be exact or a test limit, other limits are often not marked, values filed in µg/mL are converted to µM
Assay [1] deals with Pseudomonas aeruginosa ATCC 9027.
Assay [2] concerns Staphylococcus aureus ATCC 6538.
Assay [3] deals with Erwinia amylovora PMV 6076.
The subject of assay [4] is Pseudomonas syringae pv. syringae EPS 94.
The subject of assay [5] is Pseudomonas syringae pv. tomato DC3000.
Assay [6] deals with Xanthomonas campestris pv. Vesicatoria 2133-2.
Assay [7] concerns Xanthomonas campestris pv. Vesicatoria Xcv 206.

The structures appear in SMILES notation. ≈ marks a conversion by molar mass, not a printed value. A value given as a limit tells only on which side of the number the result lay.

`CC(C)C[C@H](NC(=O)[C@H](C)NC(=O)[C@H](CC(C)C)NC(=O)[C@H](C)NC(=O)[C@H](CC(C)C)NC(=O)[C@H](CCCCN)NC(=O)[C@H](C)NC(=O)[C@H](CC(C)C)NC(=O)[C@H](CCCCN)NC(=O)[C@H](CCCCN)NC(=O)[C@H](C)NC(=O)[C@H](CC(C)C)NC(=O)[C@H](CCCCN)NC(=O)[C@H](CCCCN)NC(=O)[C@H](CC(C)C)NC(=O)[C@H](CCCCN)NC(=O)[C@H](CCCCN)NC(=O)[C@H](C)NC(=O)[C@H](CC(C)C)NC(=O)[C@H](CCCCN)NC(=O)[C@H](CCCCN)NC(=O)[C@H](C)NC(=O)[C@@H](N)Cc1ccccc1)C(=O)O` [FAKKLAKKLKKLAKKLAKLALAL]: the MIC was above 78.8 µM in assay [1] and 3.94 µM (≈ 10 µg/mL) in assay [2].

On to `CC[C@H](C)[C@H](NC(=O)CNC(=O)[C@H](C)NC(=O)[C@@H]1CCCN1C(=O)CNC(=O)[C@H](C)NC(=O)[C@H](CC(C)C)NC(=O)[C@H](Cc1ccc(O)cc1)NC(=O)[C@H](CCCCN)NC(=O)[C@H](CC(C)C)NC(=O)[C@@H](NC(=O)[C@H](CCCCN)NC(=O)[C@H](CCCCN)NC(=O)[C@H](Cc1ccccc1)NC(=O)[C@H](CC(C)C)NC(=O)[C@H](CCCCN)NC(=O)[C@@H](N)CCCCN)[C@@H](C)CC)C(=O)NCC(=O)N[C@@H](CCCCN)C(=O)N[C@@H](Cc1ccccc1)C(=O)N[C@@H](CC(C)C)C(=O)N[C@@H](Cc1cnc[nH]1)C(=O)N[C@@H](CO)C(=O)N[C@@H](C)C(=O)N[C@@H](CCCCN)C(=O)N[C@@H](CCCCN)C(=O)N[C@@H](CC(=O)O)C(=O)N[C@@H](CCC(=O)O)C(=O)N[C@@H](CC(C)C)C(=O)O` [KKLFKKILKYLAGPAGIGKFLHSAKKDEL], for which the MIC in assay [3] was found to be 3.54 µM (≈ 11.5 µg/mL); in assay [4], 3.54 µM (≈ 11.5 µg/mL); in assay [5], 3.16 µM (≈ 10.3 µg/mL); in assay [6] it was 3.54 µM (≈ 11.5 µg/mL); in assay [7], 1 µM (≈ 3.24 µg/mL).

Usually MIC stands for the least concentration at which growth counts as inhibited.

These data come from DBAASP.
